The results in this text go back to article PMC4640066 (Nature Communications, 2015).

Protein sequences, listed by entry. Tags and fused reporters are not part of them.
UniProt P23258, whole entry: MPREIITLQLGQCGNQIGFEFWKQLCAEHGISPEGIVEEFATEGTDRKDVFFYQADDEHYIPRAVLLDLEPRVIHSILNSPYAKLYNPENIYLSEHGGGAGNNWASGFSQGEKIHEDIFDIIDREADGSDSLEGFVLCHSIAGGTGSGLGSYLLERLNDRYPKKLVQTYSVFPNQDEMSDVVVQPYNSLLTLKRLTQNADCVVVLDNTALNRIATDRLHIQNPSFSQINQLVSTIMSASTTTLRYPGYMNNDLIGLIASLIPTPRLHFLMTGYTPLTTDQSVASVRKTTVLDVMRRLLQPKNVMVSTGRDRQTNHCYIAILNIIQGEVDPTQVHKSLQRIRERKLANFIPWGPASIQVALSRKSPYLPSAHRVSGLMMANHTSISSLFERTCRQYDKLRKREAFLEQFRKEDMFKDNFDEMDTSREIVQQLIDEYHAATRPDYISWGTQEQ

In the assay the target is T1, human γ-tubulin (Homo sapiens, UniProt P23258).
T1 construct: myc (C); 6His (C); made in house; host or cells: Sf21 insect cells (baculovirus)
The assay is described as follows: Tryptophan-based drug-binding assay, γ-tubulin. The note with it: tryptophan fluorescence decrease; 1 μM protein; mean±s.d., three independent experiments. The protocol:
In brief, 0.7 × 10^6 cells ml^−1 were infected with the γ-tubulin baculovirus. After 48 h, cells were collected by centrifugation at […] for 10 min and flash-frozen in liquid nitrogen and stored at −80 °C. Purification was carried out as described with slight modifications. […] Imidazole (final 10 mM) was added and the lysate was centrifuged again at 192,800g for 30 min at 4 °C. […] Ni-NTA Agarose was then washed twice with wash buffer 1 (lysis buffer containing 25 mM imidazole) and wash buffer 2 (50 mM MES pH 6.6, 500 mM KCl, 5 mM MgCl2, 10% glycerol, 10 μM GTP and 1 mM DTT) containing 25 mM imidazole. γ-Tubulin was eluted with wash buffer 2 containing 200 mM imidazole.
Monomeric γ-tubulin was prepared using a size exclusion column HiLoad 16/60 Superdex 200 pre-equilibrated with gel filtration buffer (50 mM MES pH 6.6, 500 mM KCl, 5 mM MgCl2, 1 mM EGTA, 10 μM GTP and 1 mM DTT). […]
Gel filtration buffer for γ-tubulin purification (50 mM MES pH 6.6, 500 mM KCl, 5 mM MgCl2, 1 mM EGTA and 1 mM DTT) supplemented with 10% of glycerol was used as an assay buffer. γ-tubulin and α/β-tubulin were diluted in this assay buffer to reach a final protein concentration of 1 μM. […] Dissociation constants were calculated from fitting curves of decreasing fluorescence (ΔFL) using the GraphPad Prizm software.

A word on the Kd: it is the equilibrium constant for the complex coming apart. `COc1cc2c(c(OC)c1OC)-c1ccc(OC)c(=O)cc1[C@@H](NC(C)=O)CC2` [Colchicine] returned a dissociation constant Kd of 196 ± 47.9 µM.
